{"source": "ChEMBL document CHEMBL1123068", "about": "“2-Fluoroformycin and 2-aminoformycin. Synthesis and biological activity” (J Med Chem, 1985)"}
{"assay": "Ratio of kinetic parameters Vmax to the of Km; Vmax/Km"}
{"smiles": "Nc1nc(F)nc2c([C@@H]3O[C@H](CO)[C@@H](O)[C@H]3O)n[nH]c12", "Ratio": 0.017}
{"smiles": "Nc1nc(N)c2[nH]nc([C@@H]3O[C@H](CO)[C@@H](O)[C@H]3O)c2n1", "Ratio": 4.3}
{"smiles": "Nc1ncnc2c([C@@H]3O[C@H](CO)[C@@H](O)[C@H]3O)[nH]nc12", "Ratio": 8}
